Values quoted from earlier work as cited in PMC4803553 (Endocrinology and Metabolism, 2016).

Settings: cited from earlier work

## N#C[C@@H]1CCCN1C(=O)CNC12CC3CC(CC(O)(C3)C1)C2 [Vildagliptin, vildagliptin]
  Fraction of the drug excreted as a metabolite through the kidneys: about two-thirds
